Test results as given in patent publication US12692237B2, “Continuous method for preparing tricyanoimidazole” (UCHICAGO ARGONNE, LLC, priority 2022, dated 2026).

Test: Examination of aging time / stability of diazonium solution
Details: MeCN/DMSO/water, aged 10 to 1440 min, 20 °C

4,5-dicyano-1H-imidazole-2-diazonium
Stability of diazonium in solution (HPLC after quench into KCN/CuCN): stable in solution
Stability of diazonium in solution (HPLC after quench into KCN/CuCN) (listed as Diazonium): stable
